Data as given in patent US20220296583A1, “COMPOSITIONS AND METHODS FOR TREATMENT OF OVARIAN AND BREAST CANCER” (Board of Regents, The University of Texas System, priority 2021, published 2022).

How the values were obtained:
MAXF MDA-MB-231 [1] = system: MAXF MDA-MB-231
MAXF MDA-MB-231 [2] = system: MAXF MDA-MB-231; remark: listed apart in the source
MAXF Hs 578T [3] = system: MAXF Hs 578T
MAXF Hs 578T [4] = system: MAXF Hs 578T; remark: listed apart in the source
OVCAR8 xenograft = assay: OVCAR8 i.p. xenograft, Compound B and carboplatin; assay type: in vivo, mice; conditions: Compound B 50 mg/kg orally five days a week, carboplatin 25 mg/kg i.p. once a week, three weeks, p<0.05
Experimental: After treatment as indicated in (A) for three weeks, mice were weighed, and intraperitoneal nodules were excised and weighed. […] Mice were treated with single, double, or triple agents for 6 weeks. Tumor was measured once a week until the tumor burden in control group reached maximum allowance. The graphs indicate the mean±standard deviation. Statistical significance is indicated by *p<0.05, **p<0.01, and ***p<0.0001.
Six-week-old female athymic nu/nu mice were purchased from Envigo. Experiments were reviewed and all procedures were performed according to an animal protocol approved by the Institutional Animal Care and Use Committee of UT MD Anderson Cancer Center. […] Carboplatin was administrated i.p. once a week at a dose of 25 mg/kg. […] Carboplatin was treated at a dose of 30 mg/kg once a week for six weeks. […] At end of six weeks, the mice were sacrificed by CO2. The mice were dissected immediately after death and the tumors were collected and weighed.
OVCAR8 cells were injected intraperitoneally (ip) into nu/nu mice. Treatment started 7 days post injection. […] At the conclusion of the treatment, the mice were sacrificed, and the tumor was dissected and weighed (FIG. 23A). […] The tumor volume was measured at indicated time points (FIG. 23D).

[5] = Table 13, 3.2E−03 μM (first column)
[6] = Table 13, 3.2E−03 μM (third column)

## COc1c(F)cc(F)cc1-c1c[nH]c2ncc(-c3cnn(C4CCN(S(C)(=O)=O)CC4)c3)cc12 [Compound B, 3-(3,5-difluoro-2-methoxyphenyl)-5-(1-(1-(methylsulfonyl)piperidin-4-yl)-1H-pyrazol-4-yl)-1H-pyrrolo[2,3-b]pyridine]
MAXF MDA-MB-231 [1]; Table 13, 1.0E+00 μM
  Test/Control (%) at drug Concentration [μM]: 103%
MAXF MDA-MB-231 [1]; Table 13, 1.0E+01 μM
  Test/Control (%) at drug Concentration [μM]: 80%
MAXF MDA-MB-231 [1]; Table 13, 1.0E+02 μM
  Test/Control (%) at drug Concentration [μM]: 40%
MAXF MDA-MB-231 [1]; Table 13, 1.0E−01 μM
  Test/Control (%) at drug Concentration [μM]: 103%
MAXF MDA-MB-231 [1]; Table 13, 1.0E−02 μM
  Test/Control (%) at drug Concentration [μM]: 104%
MAXF MDA-MB-231 [1]; Table 13, 3.2E+00 μM
  Test/Control (%) at drug Concentration [μM]: 95%
MAXF MDA-MB-231 [1]; Table 13, 3.2E+01 μM
  Test/Control (%) at drug Concentration [μM]: 77%
MAXF MDA-MB-231 [1]; Table 13, 3.2E−01 μM
  Test/Control (%) at drug Concentration [μM]: 103%
MAXF MDA-MB-231 [1]; [5]
  Test/Control (%) at drug Concentration [μM]: 102%
MAXF MDA-MB-231 [1]; [6]
  Test/Control (%) at drug Concentration [μM]: 105%
MAXF MDA-MB-231 [2]; 1.0E+00 μM
  Test/Control (%) at drug Concentration [μM]: 86%
MAXF MDA-MB-231 [2]; 1.0E+01 μM
  Test/Control (%) at drug Concentration [μM]: 56%
MAXF MDA-MB-231 [2]; 1.0E+02 μM
  Test/Control (%) at drug Concentration [μM]: 42%
MAXF Hs 578T [3]; 1.0E+00 μM
  Test/Control (%) at drug Concentration [μM]: 98%
MAXF Hs 578T [3]; 1.0E+01 μM
  Test/Control (%) at drug Concentration [μM]: 40%
MAXF Hs 578T [3]; 1.0E+02 μM
  Test/Control (%) at drug Concentration [μM]: 5%
MAXF BT-549; 1.0E+00 μM
  Test/Control (%) at drug Concentration [μM]: 88%
MAXF BT-549; 1.0E+01 μM
  Test/Control (%) at drug Concentration [μM]: 54%
MAXF BT-549; 1.0E+02 μM
  Test/Control (%) at drug Concentration [μM]: 27%
MAXF SK-BR-3; 1.0E+00 μM
  Test/Control (%) at drug Concentration [μM]: 106%
MAXF SK-BR-3; 1.0E+01 μM
  Test/Control (%) at drug Concentration [μM]: 95%
MAXF SK-BR-3; 1.0E+02 μM
  Test/Control (%) at drug Concentration [μM]: 72%
MAXF Hs 578T [4]; Table 13, 1.0E+00 μM
  Test/Control (%) at drug Concentration [μM]: 97%
MAXF Hs 578T [4]; Table 13, 1.0E+01 μM
  Test/Control (%) at drug Concentration [μM]: 64%
MAXF Hs 578T [4]; Table 13, 1.0E+02 μM
  Test/Control (%) at drug Concentration [μM]: 19%
MAXF Hs 578T [4]; Table 13, 1.0E−01 μM
  Test/Control (%) at drug Concentration [μM]: 97%
MAXF Hs 578T [4]; Table 13, 1.0E−02 μM
  Test/Control (%) at drug Concentration [μM]: 101%
MAXF Hs 578T [4]; Table 13, 3.2E+00 μM
  Test/Control (%) at drug Concentration [μM]: 92%
MAXF Hs 578T [4]; Table 13, 3.2E+01 μM
  Test/Control (%) at drug Concentration [μM]: 36%
MAXF Hs 578T [4]; Table 13, 3.2E−01 μM
  Test/Control (%) at drug Concentration [μM]: 98%
MAXF Hs 578T [4]; [5]
  Test/Control (%) at drug Concentration [μM]: 101%
MAXF Hs 578T [4]; [6]
  Test/Control (%) at drug Concentration [μM]: 99%
MAXF T47D; 1.0E+00 μM
  Test/Control (%) at drug Concentration [μM]: 89%
MAXF T47D; 1.0E+01 μM
  Test/Control (%) at drug Concentration [μM]: 76%
MAXF T47D; 1.0E+02 μM
  Test/Control (%) at drug Concentration [μM]: 62%
MAXF MDA-MB-453; 1.0E+00 μM
  Test/Control (%) at drug Concentration [μM]: 80%
MAXF MDA-MB-453; 1.0E+01 μM
  Test/Control (%) at drug Concentration [μM]: 56%
MAXF MDA-MB-453; 1.0E+02 μM
  Test/Control (%) at drug Concentration [μM]: 33%
MAXF ZR-75-1; 1.0E+00 μM
  Test/Control (%) at drug Concentration [μM]: 100%
MAXF ZR-75-1; 1.0E+01 μM
  Test/Control (%) at drug Concentration [μM]: 100%
MAXF ZR-75-1; 1.0E+02 μM
  Test/Control (%) at drug Concentration [μM]: 94%
OVCAR8 xenograft
  tumor growth (tumor weight): significantly enhanced the growth inhibitory effect of carboplatin
MAXF MX1; 1.0E+00 μM
  Test/Control (%) at drug Concentration [μM]: 127%
MAXF MX1; 1.0E+01 μM
  Test/Control (%) at drug Concentration [μM]: 118%
MAXF MX1; 1.0E+02 μM
  Test/Control (%) at drug Concentration [μM]: 114%
MAXF MDA-MB-468; 1.0E+00 μM
  Test/Control (%) at drug Concentration [μM]: 104%
MAXF MDA-MB-468; 1.0E+01 μM
  Test/Control (%) at drug Concentration [μM]: 87%
MAXF MDA-MB-468; 1.0E+02 μM
  Test/Control (%) at drug Concentration [μM]: 43%
MAXF BT-474; 1.0E+00 μM
  Test/Control (%) at drug Concentration [μM]: 91%
MAXF BT-474; 1.0E+01 μM
  Test/Control (%) at drug Concentration [μM]: 78%
MAXF BT-474; 1.0E+02 μM
  Test/Control (%) at drug Concentration [μM]: 52%
MAXF MCF 10A; 1.0E+00 μM
  Test/Control (%) at drug Concentration [μM]: 121%
MAXF MCF 10A; 1.0E+01 μM
  Test/Control (%) at drug Concentration [μM]: 116%
MAXF MCF 10A; 1.0E+02 μM
  Test/Control (%) at drug Concentration [μM]: 74%
MAXF MCF7; 1.0E+00 μM
  Test/Control (%) at drug Concentration [μM]: 92%
MAXF MCF7; 1.0E+01 μM
  Test/Control (%) at drug Concentration [μM]: 76%
MAXF MCF7; 1.0E+02 μM
  Test/Control (%) at drug Concentration [μM]: 59%
MAXF 401; 1.0E+00 μM
  Test/Control (%) at drug Concentration [μM]: 104%
MAXF 401; 1.0E+01 μM
  Test/Control (%) at drug Concentration [μM]: 79%
MAXF 401; 1.0E+02 μM
  Test/Control (%) at drug Concentration [μM]: 52%

Read-outs that look alike come from different tables or passages of the source.
